The chains behind the UniProt entries cited, without tags or fusion partners. Where a name states a change or a piece, a line headed by the entry shows the natural chain unless it says otherwise.
UniProt P41146: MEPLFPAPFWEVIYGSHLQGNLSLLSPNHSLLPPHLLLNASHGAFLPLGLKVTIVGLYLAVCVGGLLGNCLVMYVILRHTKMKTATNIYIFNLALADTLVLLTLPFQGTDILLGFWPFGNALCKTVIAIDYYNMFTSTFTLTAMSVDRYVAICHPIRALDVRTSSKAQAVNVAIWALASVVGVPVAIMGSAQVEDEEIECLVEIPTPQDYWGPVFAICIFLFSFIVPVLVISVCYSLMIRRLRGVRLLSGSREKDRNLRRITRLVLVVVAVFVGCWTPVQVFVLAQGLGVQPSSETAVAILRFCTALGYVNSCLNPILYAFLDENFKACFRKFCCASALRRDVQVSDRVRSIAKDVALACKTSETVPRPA
UniProt P35372, whole entry, looked up: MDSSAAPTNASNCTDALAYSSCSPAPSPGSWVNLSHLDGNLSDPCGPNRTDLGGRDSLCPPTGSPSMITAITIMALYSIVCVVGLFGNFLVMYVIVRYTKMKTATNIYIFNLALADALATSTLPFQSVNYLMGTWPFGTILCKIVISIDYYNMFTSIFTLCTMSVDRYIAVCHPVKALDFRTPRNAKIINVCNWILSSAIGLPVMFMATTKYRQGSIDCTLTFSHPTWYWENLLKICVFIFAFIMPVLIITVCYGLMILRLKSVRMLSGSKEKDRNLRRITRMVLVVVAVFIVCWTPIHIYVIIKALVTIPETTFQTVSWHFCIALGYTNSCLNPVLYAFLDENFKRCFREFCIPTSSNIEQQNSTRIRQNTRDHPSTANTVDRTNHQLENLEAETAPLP

In ChEMBL document CHEMBL5728091, “3-((hetero-)aryl)-alkyl-8-amino-2-oxo-l,3-diaza-spiro-[4.5]-decane derivatives” (2020):

Columns and labels:
Nociceptin receptor = Nociceptin receptor (Homo sapiens, UniProt P41146); assay: Receptor Binding Assay: The hNOP receptor binding assay was performed as homogeneous SPA-assay (scintillation proximity assay) using the assay buffer 50 mM TRIS-HCl. 10 mM MgCl2. 1 mM EDTA (pH 7.4). The final assay volume (250 ul/well) included 0.5 nM of [leucyl-3H]nociceptin as ligand (PerkinElmer Life Sciences. Inc. Boston. Mass. USA). and either test compound in dilution series or 1 uM unlabell
Mu-type opioid receptor = Mu-type opioid receptor (Homo sapiens, UniProt P35372); assay: Receptor Binding Assay: Mu-Opioid Peptide (hMOP): The hMOP receptor binding assay was performed as homogeneous SPA-assay (scintillation proximity assay) using the assay buffer 50 mM TRIS-HCl (pH 7.4) supplemented with 0.052 mg/ml bovine serum albumin (Sigma-Aldrich Co. St. Louis. Mo.). The final assay volume (250 μl/well) included 1 nM of [N-allyl-2.3-3H]naloxone as ligand (PerkinElmer Life Scienc

CN(C)[C@]1(c2ccccc2)CC[C@]2(CC1)CN(Cc1ccccn1)C(=O)N2CC1CCC1
Ki (Nociceptin receptor): 84.5 nM | Ki (Mu-type opioid receptor): 3.3 nM

COc1ccc(CN2C[C@]3(CC[C@](c4ccccc4)(N(C)C)CC3)N(CC3CCOCC3)C2=O)cc1
Ki (Nociceptin receptor): 2780 nM | Ki (Mu-type opioid receptor): 96.5 nM

C=CCN(C)[C@]1(c2ccccc2)CC[C@]2(CC1)CN(Cc1ccc(OC)cc1)C(=O)N2CC1CCC1
Ki (Mu-type opioid receptor): 690 nM

CN(C)[C@]1(c2ccccc2)CC[C@]2(CC1)CN(Cc1ccc(C(F)(F)F)nc1)C(=O)N2CC1CCC1
Ki (Nociceptin receptor): 150 nM | Ki (Mu-type opioid receptor): 3.5 nM

CN(C)[C@]1(c2ccccc2)CC[C@]2(CC1)CN(Cc1ccncc1)C(=O)N2
Ki (Nociceptin receptor): 4080 nM | Ki (Mu-type opioid receptor): 240 nM

COc1ccc(CN2C[C@]3(CC[C@](c4ccccc4)(N(C)C)CC3)N(Cc3cccnc3)C2=O)cc1
Ki (Nociceptin receptor): 195 nM | Ki (Mu-type opioid receptor): 49.5 nM

COc1ccc(CN2C[C@]3(CC[C@](c4ccccc4)(N(C)C)CC3)N(CC3CCCCC3)C2=O)cc1
Ki (Nociceptin receptor): 545 nM | Ki (Mu-type opioid receptor): 31 nM

CN(C)[C@]1(c2ccccc2)CC[C@]2(CC1)CN(Cc1c[nH]nn1)C(=O)N2
Ki (Nociceptin receptor): 5290 nM | Ki (Mu-type opioid receptor): 405 nM

CN(C)C1(c2ccccc2)CCC2(CC1)CN(Cc1cn(CC(N)=O)nn1)C(=O)N2 (configuration not stated)
Ki (Nociceptin receptor): 4940 nM | Ki (Mu-type opioid receptor): 340 nM

COc1ccc(CN2C[C@]3(CC[C@](c4ccccc4)(N(C)C)CC3)N(C)C2=O)cc1
Ki (Nociceptin receptor): 2390 nM | Ki (Mu-type opioid receptor): 180 nM

COc1ccc(CN2C[C@]3(CC[C@](c4ccccc4)(N(C)C)CC3)N(CC(C)(C)C#N)C2=O)cc1
Ki (Nociceptin receptor): 1320 nM | Ki (Mu-type opioid receptor): 11.8 nM

COc1ccc(CN2C[C@]3(CC[C@](c4ccc(O)cc4)(N(C)C)CC3)N(CC3CCC3)C2=O)cc1
Ki (Nociceptin receptor): 4620 nM | Ki (Mu-type opioid receptor): 1200 nM

CN(C)[C@]1(c2ccccc2)CC[C@]2(CC1)CN(Cc1ccccc1C#N)C(=O)N2CC1CCC1
Ki (Nociceptin receptor): 380 nM | Ki (Mu-type opioid receptor): 5.6 nM

COc1ccc(CN2C[C@]3(CC[C@](c4ccccc4)(N(C)C)CC3)N(CCC(C)(C)OC)C2=O)cc1
Ki (Nociceptin receptor): 195 nM | Ki (Mu-type opioid receptor): 10.1 nM

CN(C)[C@]1(c2ccccc2)CC[C@]2(CC1)CN(Cc1ccc(C(N)=O)cc1)C(=O)N2CC1CCC1
Ki (Nociceptin receptor): 385 nM | Ki (Mu-type opioid receptor): 17.6 nM

CCN(C)[C@]1(c2ccccc2)CC[C@]2(CC1)CN(Cc1cccnc1)C(=O)N2CC1CCC1
Ki (Nociceptin receptor): 855 nM | Ki (Mu-type opioid receptor): 27 nM

COc1ccccc1CN1C[C@]2(CC[C@](c3ccccc3)(N(C)C)CC2)NC1=O
Ki (Nociceptin receptor): 2660 nM | Ki (Mu-type opioid receptor): 108 nM

COc1ccc(CN2C[C@]3(CC[C@](c4cccc(F)c4)(N(C)C)CC3)NC2=O)cc1
Ki (Nociceptin receptor): 5460 nM | Ki (Mu-type opioid receptor): 80 nM

COCCCCN1C(=O)N(Cc2ccc(OC)cc2)C[C@]12CC[C@](c1ccccc1)(N(C)C)CC2
Ki (Nociceptin receptor): 230 nM | Ki (Mu-type opioid receptor): 34.5 nM

COc1ccc(CN2C[C@]3(CC[C@](c4ccccc4)(N(C)C)CC3)N(CCC3CCCCC3)C2=O)cc1
Ki (Nociceptin receptor): 625 nM | Ki (Mu-type opioid receptor): 87.5 nM

COc1ccc(CN2C[C@]3(CC[C@](c4ccccc4)(N(C)C)CC3)N(CC(=O)N(C)C)C2=O)cc1
Ki (Nociceptin receptor): 3430 nM | Ki (Mu-type opioid receptor): 18 nM

CN(C)[C@]1(c2ccccc2)CC[C@]2(CC1)CN(Cc1ccnc(N3CCOCC3)c1)C(=O)N2
Ki (Nociceptin receptor): 6980 nM | Ki (Mu-type opioid receptor): 115 nM

COc1ccc(CN2C[C@]3(CC[C@](c4ccccc4)(N(C)C)CC3)N(Cc3ccncn3)C2=O)cc1
Ki (Nociceptin receptor): 5140 nM | Ki (Mu-type opioid receptor): 215 nM

CN(C)[C@]1(c2ccccc2)CC[C@]2(CC1)CN(Cc1ccccn1)C(=O)N2
Ki (Mu-type opioid receptor): 190 nM

CN(C)[C@]1(c2ccccc2)CC[C@]2(CC1)CN(Cc1ccccc1)C(=O)N2CC1CCC1
Ki (Nociceptin receptor): 81 nM | Ki (Mu-type opioid receptor): 1.3 nM

COc1ccc(CN2C[C@]3(CC[C@](c4ccccc4)(N(C)C)CC3)N(CC(C)(C)C)C2=O)cc1
Ki (Nociceptin receptor): 1240 nM | Ki (Mu-type opioid receptor): 39 nM

CN(C)[C@]1(c2ccccc2)CC[C@]2(CC1)CN(CCc1ccncc1)C(=O)N2
Ki (Nociceptin receptor): 3690 nM | Ki (Mu-type opioid receptor): 106 nM

COCCOCCOCCOCCOCCOCCOCCOCCN1C(=O)N(Cc2ccc(OC)cc2)CC12CCC(c1ccccc1)(N(C)C)CC2 (configuration not stated)
Ki (Nociceptin receptor): 5250 nM | Ki (Mu-type opioid receptor): 405 nM

COc1ccc(CN2C[C@]3(CC[C@](c4ccccc4)(N(C)C)CC3)N(CC3(F)CCC3)C2=O)cc1
Ki (Nociceptin receptor): 710 nM | Ki (Mu-type opioid receptor): 19.3 nM

COc1ccc(CN2C[C@]3(CC[C@](c4ccccc4)(N(C)C)CC3)N(CCCCC#N)C2=O)cc1
Ki (Nociceptin receptor): 860 nM | Ki (Mu-type opioid receptor): 40 nM

COCCC[C@]1(N(C)C)CC[C@@]2(CC1)CN(Cc1ccc(OC)cc1)C(=O)N2CC1CCC1
Ki (Nociceptin receptor): 90 nM | Ki (Mu-type opioid receptor): 455 nM

CN(C)[C@]1(c2ccccc2)CC[C@]2(CC1)CN(Cc1ccnc(N3CCCCC3)c1)C(=O)N2
Ki (Nociceptin receptor): 845 nM | Ki (Mu-type opioid receptor): 25 nM

COc1ccc(CN2C[C@]3(CC[C@](c4ccccc4)(N(C)C)CC3)N(CC3(O)CCCC3)C2=O)cc1
Ki (Nociceptin receptor): 480 nM | Ki (Mu-type opioid receptor): 9.1 nM

CN(C)[C@]1(c2ccccc2)CC[C@]2(CC1)CN(Cc1cccc(S(C)(=O)=O)c1)C(=O)N2
Ki (Nociceptin receptor): 5240 nM | Ki (Mu-type opioid receptor): 145 nM

CN(C)[C@]1(c2ccccc2)CC[C@]2(CC1)CN(C(C)(C)c1ccccc1)C(=O)N2
Ki (Mu-type opioid receptor): 325 nM
